{
  "source": "BindingDB's records for doi:10.1021/jm049600p",
  "about": "(Saarland University, 2005)",
  "target": "T1, Cytochrome P450 11B1, mitochondrial (Homo sapiens, UniProt P15538)",
  "T1 sequence (P15538 whole entry)": "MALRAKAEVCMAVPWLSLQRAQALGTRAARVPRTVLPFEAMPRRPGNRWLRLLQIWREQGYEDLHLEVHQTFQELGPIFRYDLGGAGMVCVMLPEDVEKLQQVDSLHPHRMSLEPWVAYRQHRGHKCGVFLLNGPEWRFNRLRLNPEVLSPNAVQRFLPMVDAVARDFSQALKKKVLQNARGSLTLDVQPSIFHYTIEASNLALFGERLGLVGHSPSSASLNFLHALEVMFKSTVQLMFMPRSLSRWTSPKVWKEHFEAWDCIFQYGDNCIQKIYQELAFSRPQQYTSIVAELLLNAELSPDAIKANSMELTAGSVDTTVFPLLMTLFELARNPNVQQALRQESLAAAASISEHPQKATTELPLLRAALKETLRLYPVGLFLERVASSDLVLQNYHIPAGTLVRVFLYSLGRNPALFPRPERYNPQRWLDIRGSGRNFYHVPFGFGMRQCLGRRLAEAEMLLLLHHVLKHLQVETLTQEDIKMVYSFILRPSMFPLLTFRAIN",
  "assay": "CYP11B Assay",
  "conditions": "IC50 (nM)",
  "description": "The enzyme activity was assayed by monitoring the conversion of deoxycorticosterone to corticosterone in the presence of inhibitor compounds. The product formation was monitored by HPTLC using a phosphoimager system.",
  "data": [
    {"smiles": "N#Cc1ccc2c(c1)CCC2=Cc1cnc[nH]1", "note": "[Imidazolylmethyleneindane 5b]", "values": [
      {"measurement": "IC50", "result": 12.3, "unit": "nM"}
    ]}
  ]
}
